{"sequences": {"note": "Sequences of proteins named here, by UniProt entry; tags and fusion partners are left off.", "UniProt P30542, whole entry": "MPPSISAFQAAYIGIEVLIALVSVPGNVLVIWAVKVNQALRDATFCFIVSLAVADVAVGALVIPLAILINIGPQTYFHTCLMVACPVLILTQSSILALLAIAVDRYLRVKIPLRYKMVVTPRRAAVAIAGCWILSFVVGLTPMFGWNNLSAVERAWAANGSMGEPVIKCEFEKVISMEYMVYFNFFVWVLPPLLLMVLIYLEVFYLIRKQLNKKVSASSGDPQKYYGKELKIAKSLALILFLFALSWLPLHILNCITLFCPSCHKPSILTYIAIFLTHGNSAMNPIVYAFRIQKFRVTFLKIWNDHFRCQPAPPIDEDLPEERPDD"}, "source": "paper PMC3823413", "about": "(Journal of Cellular and Molecular Medicine, 2008)", "target": "A1 receptors (Homo sapiens, UniProt P30542)", "test": "[3H]DPCPX binding to PMN", "settings": "native versus LPS-stimulated PMN; data not shown", "data": [{"molecule": "[3H]CCC([3H])n1c(=O)c2[nH]c(C3CCCC3)nc2n(C([3H])CC[3H])c1=O", "note": "(stereo not shown) [[^3H]DPCPX]", "values": [{"measurement": "binding parameters of A1 receptors", "value": "no differences between native and LPS-stimulated PMN"}]}]}
